PubChem BioAssay (NCI)
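Protocol summary: plate cells (96-well), add compound at 5 concentrations, incubate 48 h, interpolate endpoints linearly. GI50: concentration for 50% inhibition of growth. TGI is the concentration that stops growth completely.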

Columns and labels:
Assay in all cases: inhibition of tumour cell growth, NCI panel, 48 h; in the data active means GI50 below about 0.43 µM; inactive means the rest
BT-549 breast = system: BT-549 breast
MOLT-4 leukemia = system: MOLT-4 leukemia
SF-539 CNS = system: SF-539 CNS
ACHN renal = system: ACHN renal
EKVX NSCLC = system: EKVX NSCLC
A498 renal = system: A498 renal
MDA-MB-435 = system: MDA-MB-435
CAKI-1 renal = system: CAKI-1 renal
SK-MEL-5 melanoma = system: SK-MEL-5 melanoma
T-47D breast = system: T-47D breast
NCI-H460 lung = system: NCI-H460 lung
NCI/ADR-RES ovarian = system: NCI/ADR-RES ovarian
NCI-H226 lung = system: NCI-H226 lung
UACC-62 melanoma = system: UACC-62 melanoma
SK-MEL-2 melanoma = system: SK-MEL-2 melanoma
SK-MEL-28 melanoma = system: SK-MEL-28 melanoma
U251 CNS = system: U251 CNS
MDA-MB-231 breast = system: MDA-MB-231 breast
HL-60(TB) leukemia = system: HL-60(TB) leukemia
DU-145 prostate = system: DU-145 prostate
CCRF-CEM leukemia = system: CCRF-CEM leukemia
OVCAR-4 ovarian = system: OVCAR-4 ovarian
NCI-H322M lung = system: NCI-H322M lung
MCF7 breast = system: MCF7 breast
NCI-H522 lung = system: NCI-H522 lung
COLO 205 colon = system: COLO 205 colon
UO-31 renal = system: UO-31 renal
K-562 leukemia = system: K-562 leukemia
SK-OV-3 ovarian = system: SK-OV-3 ovarian
LOX IMVI melanoma = system: LOX IMVI melanoma

NC(=O)Nc1cc([As](=O)(O)O)cc(I)c1O
inactive: GI50 (BT-549 breast) > 100 µM | GI50 (MOLT-4 leukemia) > 100 µM | GI50 (SF-539 CNS) > 100 µM | GI50 (ACHN renal) > 100 µM | GI50 (EKVX NSCLC) > 100 µM | GI50 (A498 renal) > 100 µM | GI50 (MDA-MB-435) > 100 µM | GI50 (CAKI-1 renal) > 100 µM | GI50 (SK-MEL-5 melanoma) > 100 µM | GI50 (T-47D breast) > 100 µM | GI50 (NCI-H460 lung) > 100 µM | GI50 (NCI/ADR-RES ovarian) > 100 µM | GI50 (NCI-H226 lung) > 100 µM | GI50 (UACC-62 melanoma) > 100 µM | GI50 (SK-MEL-2 melanoma) > 100 µM | GI50 (SK-MEL-28 melanoma) > 100 µM | GI50 (U251 CNS) > 100 µM | GI50 (MDA-MB-231 breast) > 100 µM | GI50 (HL-60(TB) leukemia) > 100 µM | GI50 (DU-145 prostate) > 100 µM | GI50 (CCRF-CEM leukemia) > 100 µM | GI50 (OVCAR-4 ovarian) > 100 µM | GI50 (NCI-H322M lung) > 100 µM | GI50 (MCF7 breast) > 100 µM | GI50 (NCI-H522 lung) > 100 µM | GI50 (COLO 205 colon) > 100 µM | GI50 (UO-31 renal) > 100 µM | GI50 (K-562 leukemia) > 100 µM | GI50 (SK-OV-3 ovarian) > 100 µM | GI50 (LOX IMVI melanoma) > 100 µM
> 100 µM: TGI (BT-549 breast) | TGI (MOLT-4 leukemia) | TGI (SF-539 CNS) | TGI (ACHN renal) | TGI (EKVX NSCLC) | TGI (A498 renal) | TGI (MDA-MB-435) | TGI (CAKI-1 renal) | TGI (SK-MEL-5 melanoma) | TGI (T-47D breast) | TGI (NCI-H460 lung) | TGI (NCI/ADR-RES ovarian) | TGI (NCI-H226 lung) | TGI (UACC-62 melanoma) | TGI (SK-MEL-2 melanoma) | TGI (SK-MEL-28 melanoma) | TGI (U251 CNS) | TGI (MDA-MB-231 breast) | TGI (HL-60(TB) leukemia) | TGI (DU-145 prostate) | TGI (CCRF-CEM leukemia) | TGI (OVCAR-4 ovarian) | TGI (NCI-H322M lung) | TGI (MCF7 breast) | TGI (NCI-H522 lung) | TGI (COLO 205 colon) | TGI (UO-31 renal) | TGI (K-562 leukemia) | TGI (SK-OV-3 ovarian)
